Test results published in article PMC8693465.

Protein sequences, listed by entry. Tags and fused reporters are not part of them. Residues count along the entry.
UniProt P32389, 76-160: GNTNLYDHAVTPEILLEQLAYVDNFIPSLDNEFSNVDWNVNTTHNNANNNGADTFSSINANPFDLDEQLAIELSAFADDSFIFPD
UniProt P32389, 76-113: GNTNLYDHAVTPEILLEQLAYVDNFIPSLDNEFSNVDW
UniProt P32389, 114-160: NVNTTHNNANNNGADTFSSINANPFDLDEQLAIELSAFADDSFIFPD

How the values were obtained:
Experiment in all cases: BLI; biotinylated Met4 UBD constructs (20 ug/ml) loaded on streptavidin biosensors, quenched with biocytin; K48 tetra-ubiquitin at 1450, 483, 161, 53, 17, 5.6 and 2.8 nM; 50 mM Tris, 150 mM NaCl, 0.01 mg/ml BSA, 0.02% tween 20, pH 7.5; 30 °C; association 30 s, dissociation 90 s
[1] = target: Met4 tandem ubiquitin binding domain (tUBD), residues 76-160 (yeast) (UniProt P32389)
[2] = target: Met4 ubiquitin interacting motif-like domain (UIML), residues 76-113 (yeast) (UniProt P32389)
[3] = target: Met4 ubiquitin interacting motif (UIM), residues 114-160 (yeast) (UniProt P32389)
[4] = target: UIMLx3 (three tandem repeats of Met4 UIML 76-113) (yeast) (UniProt P32389)
[5] = target: UIMLx4 (four tandem repeats of Met4 UIML 76-113) (yeast) (UniProt P32389)
[6] = target: UIMLx2 probe (two tandem repeats of Met4 UIML 76-113) (yeast) (UniProt P32389)

Kd [1]: 356 nM | Kd [2]: 349 nM | kon [2]: 462000 M⁻¹ s⁻¹ | Kd [3]: 1600 nM | kon [3]: 276000 M⁻¹ s⁻¹ | Kd [4]: 48.9 nM | kon [4]: 750000 M⁻¹ s⁻¹ | Kd [5]: 104 nM | kon [5]: 376000 M⁻¹ s⁻¹ | Kd [6]: 96.8 nM | kon [6]: 536000 M⁻¹ s⁻¹
Substance: K48-linked tetra-ubiquitin (from UniProt P0CG48 1-76)
